Molecular target: Muscarinic acetylcholine receptor M3 (Homo sapiens, UniProt P20309)
Assay: [3H]-NMS Binding Assay

Protein sequences, listed by entry. Tags and fused reporters are not part of them.
UniProt P20309, whole entry, looked up: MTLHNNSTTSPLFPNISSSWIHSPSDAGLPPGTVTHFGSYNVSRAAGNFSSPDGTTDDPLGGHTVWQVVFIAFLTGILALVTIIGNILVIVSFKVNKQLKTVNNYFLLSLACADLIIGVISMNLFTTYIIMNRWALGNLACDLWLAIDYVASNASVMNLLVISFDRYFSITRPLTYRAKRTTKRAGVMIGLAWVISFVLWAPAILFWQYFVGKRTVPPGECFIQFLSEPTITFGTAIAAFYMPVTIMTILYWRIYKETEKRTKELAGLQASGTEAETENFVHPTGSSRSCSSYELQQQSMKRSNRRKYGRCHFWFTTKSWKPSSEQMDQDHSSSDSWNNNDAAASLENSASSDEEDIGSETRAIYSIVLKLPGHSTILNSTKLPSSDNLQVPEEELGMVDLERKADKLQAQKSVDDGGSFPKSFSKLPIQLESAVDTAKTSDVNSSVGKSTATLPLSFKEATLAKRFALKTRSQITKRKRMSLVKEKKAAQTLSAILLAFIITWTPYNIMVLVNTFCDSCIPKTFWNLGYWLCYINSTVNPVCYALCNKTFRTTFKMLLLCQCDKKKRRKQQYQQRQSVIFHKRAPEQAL

Q: With `O=C(O[C@H]1C[N+]2(CCc3cccs3)CCC1CC2)C(O)(c1cccs1)c1cccs1` as the compound, how does the IC50 read?
A: The IC50 was 3.1 nM.

— BindingDB's records for US9333195
